In ChEMBL document CHEMBL3352474, “Design, synthesis and biological evaluation of FLT3 covalent inhibitors with a resorcylic acid core” (Bioorg Med Chem, 2014) one finds K data, which are given here for two compounds.

Chains of the proteins cited; added tags and fusions are not shown.
UniProt P36888, whole entry: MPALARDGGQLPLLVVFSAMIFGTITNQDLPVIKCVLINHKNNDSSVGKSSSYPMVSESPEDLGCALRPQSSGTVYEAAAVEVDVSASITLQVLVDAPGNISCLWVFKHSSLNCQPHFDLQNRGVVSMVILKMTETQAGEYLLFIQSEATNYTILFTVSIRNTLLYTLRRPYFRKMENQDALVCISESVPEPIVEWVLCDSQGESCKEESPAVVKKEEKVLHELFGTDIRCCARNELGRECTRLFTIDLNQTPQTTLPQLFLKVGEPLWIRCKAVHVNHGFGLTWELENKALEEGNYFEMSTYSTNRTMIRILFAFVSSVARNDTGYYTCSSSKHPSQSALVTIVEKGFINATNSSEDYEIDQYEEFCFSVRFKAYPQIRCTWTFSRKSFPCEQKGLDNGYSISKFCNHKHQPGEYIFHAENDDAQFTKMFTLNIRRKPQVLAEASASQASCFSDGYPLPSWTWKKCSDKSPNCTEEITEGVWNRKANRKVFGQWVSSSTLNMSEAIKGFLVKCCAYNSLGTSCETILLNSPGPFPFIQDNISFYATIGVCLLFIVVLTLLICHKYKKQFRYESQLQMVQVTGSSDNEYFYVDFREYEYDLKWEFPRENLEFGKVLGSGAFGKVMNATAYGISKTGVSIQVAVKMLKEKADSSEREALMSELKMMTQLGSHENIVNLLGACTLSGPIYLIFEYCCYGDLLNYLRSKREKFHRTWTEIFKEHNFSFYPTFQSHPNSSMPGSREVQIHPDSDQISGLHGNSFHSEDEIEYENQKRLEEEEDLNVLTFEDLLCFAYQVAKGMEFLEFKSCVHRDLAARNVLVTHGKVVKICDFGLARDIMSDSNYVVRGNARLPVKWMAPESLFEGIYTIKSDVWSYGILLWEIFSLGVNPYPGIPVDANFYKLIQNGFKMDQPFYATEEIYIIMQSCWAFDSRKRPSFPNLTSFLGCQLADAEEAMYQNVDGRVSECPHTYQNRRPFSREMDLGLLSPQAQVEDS

The target of the assay is Receptor-type tyrosine-protein kinase FLT3 (Homo sapiens, UniProt P36888). In words: Reversible inhibition of FLT3 (unknown origin) assessed as dissociation constant.

For `C=CC(=O)NC/C=C/c1cc(OCCCN2CCOCC2)cc(O)c1C(=O)OC(C)C`, the K is 0.103 min⁻¹.
The same measure for `C=CS(=O)(=O)NC/C=C/c1cc(OC)cc(O)c1C(=O)OC(C)C`: 0.118 min⁻¹.
